Data published in PubChem BioAssay AID2648 (Johns Hopkins Ion Channel Center, 2010).
The entries are a selection whose mix differs from that of the whole data set. The source made the active and inactive calls.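 How the source made its calls: active means fluorescence ratio B-score, a plate-corrected score, at least three library SD, with initial intensity B-score within 5 SD; inactive means the rest.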

Chains of the proteins cited; added tags and fusions are not shown.
UniProt P51787, whole entry: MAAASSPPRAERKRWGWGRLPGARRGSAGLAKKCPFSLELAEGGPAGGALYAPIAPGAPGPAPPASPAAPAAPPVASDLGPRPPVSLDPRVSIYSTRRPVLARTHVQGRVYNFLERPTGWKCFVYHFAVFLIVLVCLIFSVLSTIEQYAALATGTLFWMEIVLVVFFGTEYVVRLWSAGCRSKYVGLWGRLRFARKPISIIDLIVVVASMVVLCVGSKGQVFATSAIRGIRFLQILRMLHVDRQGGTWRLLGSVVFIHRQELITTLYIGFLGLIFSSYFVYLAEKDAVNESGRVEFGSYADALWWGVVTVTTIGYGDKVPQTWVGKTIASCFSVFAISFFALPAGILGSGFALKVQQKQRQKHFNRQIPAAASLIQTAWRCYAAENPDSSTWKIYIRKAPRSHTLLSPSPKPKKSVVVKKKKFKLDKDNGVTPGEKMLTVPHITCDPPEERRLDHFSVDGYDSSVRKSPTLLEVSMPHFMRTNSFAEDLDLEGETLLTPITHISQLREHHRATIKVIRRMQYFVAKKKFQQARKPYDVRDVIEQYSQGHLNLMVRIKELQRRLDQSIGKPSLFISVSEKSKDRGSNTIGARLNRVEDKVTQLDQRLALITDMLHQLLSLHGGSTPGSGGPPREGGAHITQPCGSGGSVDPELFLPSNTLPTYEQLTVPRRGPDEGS

These compounds were tested against Potassium voltage-gated channel subfamily KQT member 1 (Homo sapiens) (UniProt P51787) (assay: human KCNQ1 current enhancers – cell-based, thallium flux, high-throughput, primary screen (AID 2648)). Settings: CHO-K1 KCNQ1, thallium flux FluxOR fluorescence; at 10 µM.

| SMILES | outcome |
| --- | --- |
| O=[As](O)(c1cccs1)c1cccs1 | inactive |
| Cc1ccc(OCC(=O)OC2CN3CCC2CC3)cc1 (stereo not drawn) | inactive |
| CP(=O)(Nc1ccc(SC(F)(F)F)cc1)Oc1ccccc1 (stereo not drawn) | inactive |
| Nc1cccc([As](=O)(O)c2ccccc2)c1 | inactive |
| CCCOc1ccc(NP(C)(=O)Oc2ccc(Cl)cc2)cc1 (stereo not drawn) | inactive |
| CCOC(=O)Nc1ccc([As](=O)(O)O)c(O)c1 | inactive |
| Cc1cc(SC(NC(=O)c2ccccc2)C(Cl)(Cl)Cl)nc(C(C)C)n1 (stereo not drawn) | inactive |
| CCCCOc1ccc(C(=O)NCC2(N3CCCCC3)CCCCC2)cc1OC | inactive |
| CCOC(=O)Nc1cccc([As](=O)(O)O)c1 | inactive |
| CP(=S)(Nn1cnnc1)Oc1ccccc1 (stereo not drawn) | inactive |
| O=[N+]([O-])c1ccc(Nc2ccc(Oc3ccc([N+](=O)[O-])cc3[N+](=O)[O-])cc2)c([N+](=O)[O-])c1 | inactive |
| CP(=O)(Nc1ccccc1Br)Oc1ccccc1 (stereo not drawn) | inactive |
| COc1ccccc1OP(C)(=O)Nc1ccccc1 (stereo not drawn) | inactive |
| O=P(Nc1ccccn1)(c1cccc2ccccc12)c1cccc2ccccc12 | inactive |
| Cc1cc(SC(NC=O)C(Cl)(Cl)Cl)ncn1 (stereo not drawn) | inactive |
| CP(=O)(Oc1ccccc1)OC(c1ccccc1)C(F)(F)F (stereo not drawn) | inactive |
| Cc1cccc(C)c1OP(C)(=O)Nc1ccc(SC(F)(F)F)cc1 (stereo not drawn) | inactive |
| CP(=O)(Nc1ccc(SC(F)(F)F)cc1)Oc1ccc(Cl)cc1 (stereo not drawn) | inactive |
| COP1(=S)c2c(C)nn(CCC#N)c2N=C(c2ccc(F)cc2)N1C (stereo not drawn) | inactive |
| Cc1cc(C)cc(OP(C)(=O)Nc2ccc(SC(F)(F)F)cc2)c1 (stereo not drawn) | inactive |

| SMILES | outcome |
| --- | --- |
| O=C(Nc1ccncc1[N+](=O)[O-])c1ccc([N+](=O)[O-])cc1[N+](=O)[O-] | inactive |
| CCc1ccc(OP(C)(=O)N2CCN(c3ccc([N+](=O)[O-])cc3)CC2)cc1 (stereo not drawn) | inactive |
| O=C(COc1ccccc1)OC1CN2CCC1CC2 (stereo not drawn) | inactive |
| CP(=O)(NC(=O)Nc1ccccc1)Oc1ccccc1 (stereo not drawn) | inactive |
| CCOC(=O)c1ccc(NC(=O)C(C)(CCl)SC)cc1 (stereo not drawn) | inactive |
| CCOC(=O)c1ccc(NP(C)(=O)Oc2ccc(OC)cc2)cc1 (stereo not drawn) | inactive |
| O=[N+]([O-])c1cc([N+](=O)[O-])c(O)c([N+](=O)[O-])c1.c1ccc(Oc2ccncc2)cc1 | inactive |
| O=C(OC1CN2CCC1CC2)c1cccc([N+](=O)[O-])c1 (stereo not drawn) | inactive |
| CCOP(C)(=S)SCC(=O)NC(C)C(=O)O (stereo not drawn) | inactive |
| CP(=O)(Nc1ccccn1)Oc1ccc(Cl)cc1 (stereo not drawn) | inactive |
| CCC(C)N(CC(C)C)C(=S)SC(NC(C)=O)C(Cl)(Cl)Cl (stereo not drawn) | inactive |
| CCN(CC)CCCOC(=O)C(O)(c1ccccc1)c1ccccc1 | inactive |
| Cc1cc(=O)[nH]c(N[N+](=O)[O-])n1 | inactive |
| O=C(OC1CN2CCC1CC2)C12CC3CC(CC(C3)C1)C2 (stereo not drawn) | inactive |
| Cc1c2c(nc3ccccc13)SC(C(Cl)Cl)C2 (stereo not drawn) | inactive |
| COc1cc(I)ccc1[As](=O)(O)O | inactive |
| COc1ccc2nc(NP(=O)(c3ccccc3)c3ccccc3)sc2c1 | inactive |
| COc1ccc(N/C(=N/P(=O)(N2CCOCC2)N2CCOCC2)N2CCOCC2)cc1 | inactive |
| O=[As](O)(c1ccc(O)cc1)c1ccccc1O | inactive |
| C[As](=O)(O)c1cccc(C(=O)O)c1 | inactive |

| SMILES | outcome |
| --- | --- |
| O=[N+]([O-])c1cc([N+](=O)[O-])c(Nc2cccnc2)c([N+](=O)[O-])c1 | inactive |
| Cc1ccc2nc3c(c(C)c2c1)CC(C(Cl)Cl)S3 (stereo not drawn) | inactive |
| O=[N+]([O-])c1ccc2c(c1)C=Nc1ccccc1O2 | inactive |
| Cc1cccc(C)c1OP(C)(N)=O (stereo not drawn) | inactive |
| CC(C)(C)c1ccc(OP(C)(=O)Nc2ccc(SC(F)(F)F)cc2)cc1 (stereo not drawn) | inactive |
| Cc1ccc(OP(=O)(Nc2ccc([N+](=O)[O-])cn2)Oc2ccc(C)cc2)cc1 | inactive |
| CC(C)c1ccc(OP(=O)(Nc2ccccn2)Oc2ccccc2F)cc1 (stereo not drawn) | inactive |
| Cc1ccc(NP(C)(=O)Oc2ccccc2)c(C)c1 (stereo not drawn) | inactive |
| COc1ccccc1OP(C)(=O)Nc1ccc(C)cc1 (stereo not drawn) | inactive |
| ClCCSc1nnc(-c2cccnc2)o1 | inactive |
| CCOC(=O)c1ccc(NP(C)(=O)Oc2ccccc2)cc1 (stereo not drawn) | inactive |
| Cc1cc(C)cc(OP(C)(N)=O)c1 (stereo not drawn) | inactive |
| O=[N+]([O-])c1cc([N+](=O)[O-])c(-c2ccn[nH]2)s1 | inactive |
| COc1ccc(OP(C)(=O)Nc2cccc(F)c2)cc1 (stereo not drawn) | inactive |
| CCN(CC)C(=S)SC(NC=O)C(Cl)(Cl)Cl (stereo not drawn) | inactive |
| COc1ccccc1OP(C)(=O)Nc1cc(Cl)ccc1C (stereo not drawn) | inactive |
| CC(C)NC(=O)NP(=O)(Oc1ccccc1)Oc1ccccc1 | inactive |
| O=C(O)c1ccccc1[As](=O)(O)O | inactive |
